Results taken from ChEMBL document CHEMBL4354838, “Synthesis and in Vitro and in Vivo Biological Evaluation of Tissue-Specific Bisthiazole Histone Deacetylase (HDAC) Inhibitors” (J Med Chem, 2020).

Chains of the proteins cited; added tags and fusions are not shown.
UniProt Q13547, whole entry: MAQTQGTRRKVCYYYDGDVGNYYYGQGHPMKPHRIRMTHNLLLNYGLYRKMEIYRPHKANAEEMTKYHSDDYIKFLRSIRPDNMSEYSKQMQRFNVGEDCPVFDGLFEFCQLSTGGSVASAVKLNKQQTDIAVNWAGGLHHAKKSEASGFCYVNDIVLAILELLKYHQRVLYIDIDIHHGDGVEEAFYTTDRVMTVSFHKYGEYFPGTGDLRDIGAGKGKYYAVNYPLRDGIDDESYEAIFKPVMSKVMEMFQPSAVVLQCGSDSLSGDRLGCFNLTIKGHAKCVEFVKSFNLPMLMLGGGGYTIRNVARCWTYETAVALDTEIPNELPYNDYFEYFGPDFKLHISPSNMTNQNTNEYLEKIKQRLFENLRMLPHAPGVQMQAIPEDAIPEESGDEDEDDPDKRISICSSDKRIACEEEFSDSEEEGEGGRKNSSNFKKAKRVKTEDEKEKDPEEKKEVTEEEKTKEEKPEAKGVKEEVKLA

Biological target: Histone deacetylase 1 (Homo sapiens, UniProt Q13547)
Experiment: biochemical
Format: cell-based

IC50: 3.59 to 4 nM
Compound: C[C@H](NC(=O)c1nc(-c2ncc(-c3ccccc3)s2)sc1C1CC1)c1ccc(C(=O)NO)cc1
